# Data taken from ChEMBL document CHEMBL1156805, “Development of (S)-N6-(2-(4-(isoquinolin-1-yl)piperazin-1-yl)ethyl)-N6-propyl-4,5,6,7-tetrahydrobenzo[d]-thiazole-2,6-diamine and its analogue as a D3 receptor preferring agonist: potent in vivo activity in Parkinson's disease animal models” (J Med Chem, 2010).
# The chains behind the UniProt entries cited, without tags or fusion partners.
# UniProt P61169, whole entry: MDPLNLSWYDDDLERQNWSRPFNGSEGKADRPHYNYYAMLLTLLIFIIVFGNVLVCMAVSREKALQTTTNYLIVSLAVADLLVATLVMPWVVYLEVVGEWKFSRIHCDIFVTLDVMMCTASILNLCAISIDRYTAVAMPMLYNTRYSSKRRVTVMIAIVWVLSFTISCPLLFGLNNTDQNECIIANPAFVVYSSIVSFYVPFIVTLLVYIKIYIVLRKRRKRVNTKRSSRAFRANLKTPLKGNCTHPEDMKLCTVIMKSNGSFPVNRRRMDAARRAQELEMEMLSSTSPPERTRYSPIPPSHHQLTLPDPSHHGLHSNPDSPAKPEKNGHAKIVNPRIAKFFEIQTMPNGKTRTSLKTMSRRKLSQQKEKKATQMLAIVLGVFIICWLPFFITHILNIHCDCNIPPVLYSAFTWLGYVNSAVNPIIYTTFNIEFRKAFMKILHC
# Target: D(2) dopamine receptor (Rattus norvegicus, UniProt P61169)
structure (smiles),measurement,value
CCCN(CCN1CCN(c2ccccc2)CC1)[C@@H]1CCc2c(O)cccc2C1,Ki,26 nM
